Test [1] has as its target 468 kinases (Plasmodium falciparum, UniProt P61075). The experiment in a line: biochemical. The note with it: read-out: % Inhibition @ 100 nM.
For test [2], the target named is 468 kinases (Plasmodium falciparum, UniProt P62344). Briefly: biochemical. The conditions noted are these: read-out: % Inhibition @ 100 nM.

By UniProt entry, the sequences of proteins in these tests, tags left out. Residues count along the entry.
UniProt P62344, 2-524 limits assumed: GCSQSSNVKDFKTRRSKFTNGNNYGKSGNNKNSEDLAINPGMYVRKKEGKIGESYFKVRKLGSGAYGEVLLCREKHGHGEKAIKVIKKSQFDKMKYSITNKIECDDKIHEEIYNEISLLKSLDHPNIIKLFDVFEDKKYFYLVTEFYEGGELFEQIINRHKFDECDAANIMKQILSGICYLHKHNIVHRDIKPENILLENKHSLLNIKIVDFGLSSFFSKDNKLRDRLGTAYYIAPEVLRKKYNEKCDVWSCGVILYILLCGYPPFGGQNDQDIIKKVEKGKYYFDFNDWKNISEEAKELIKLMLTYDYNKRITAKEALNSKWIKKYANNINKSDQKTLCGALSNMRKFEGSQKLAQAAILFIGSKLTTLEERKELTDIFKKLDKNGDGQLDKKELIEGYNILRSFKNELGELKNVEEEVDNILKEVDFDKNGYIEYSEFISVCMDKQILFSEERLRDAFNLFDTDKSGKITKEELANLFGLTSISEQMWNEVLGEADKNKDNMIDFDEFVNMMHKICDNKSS

Take `CCN(CC)CCNC(=O)c1c(C)[nH]c(/C=C2\C(=O)Nc3ccc(F)cc32)c1C` [Sunitinib, (Z)—N-(2-(Diethylamino)ethyl)-5-((5-fluoro-2-oxoindolin-3-ylidene)methyl)-2,4-dimethyl-1H-pyrrole-3-carboxamide, reference compound]: the values for the inhibition at 0.1 µM at 468 kinases [1] and on 468 kinases [2] were 43% and 8%, respectively.

As usually defined, the inhibition is the share of the control response that was lost under treatment.
